Measurements from patent US8350077B2, “Amides of creatine, method of their preparation, and remedy possessing a neuroprotective activity” (VERTEX Closed Joint Stock Company, priority 2008, dated 2013).

Assays:
[1] = Stability of Creatine amides in rat blood plasma (RP-HPLC peak areas, 37° C.); conditions: peak area relative to start
Protocol: Study of the Creatine derivatives stability in aqueous solution, as well as in human and rat blood plasma was carried out by the method of Reversed Phase HPLC using a chromatography system, known as Beckman System Gold™ (USA) in the following configuration: Programmable Solvent Module 126, Manual Injector Rheodyne 7725i, Programmable Detector Module 166, featured with the Beckman System Gold Chromatography Software™. The analysis was carried out on the column Luna 5μ C18(2) 100 Å 150×4.6 mm (Phenomenex, USA) with the precolumn Guard Cartridge C18 at the flow rate 1 ml/min in the linear gradient of acetonitrile: for analogue from the Example 1 from 5 to 25% of acetonitrile in 20 min (A: 0.1% of […]—H2O, B: 0.1% of H3PO4-acetonitrile), in case of substance from the Examples 2÷8: from 3 to 23% of acetonitrile in 20 minutes. The detection was carried out on the wave length 220 nm. The samples dosing on the column was carried out by the loop 20 μl.
(§1) For the study of Creatine amides stability, 1 ml of water or blood plasma was added to 200 μl of aqueous solution of starting amide with a concentration of 2÷3 mg/ml then shaken; a probe volume of 200 μl was taken up immediately and analysis of an initial concentration of the Creatine amide was carried out. Further, the solution was placed into a vibro-thermostat at a temperature of 37° C., then aliquote 200 μl was taken up in 0.5, 1, and 3 hours of thermostatics. 20 μl 10% solution of trichloroacetic acid was added to the taken probe, and kept for 15 min at temperature (−)24° C., then centrifuged at 6000×g for 5 minutes for sedimentation of plasma proteins, supernatant was taken up and its analysis was carried out.
(§2) For evaluation of samples' stability, peak areas of a corresponding compound at the beginning of experiment and at selected time intervals were compared (Tables 1, 2).

[2] = Stability of Creatine amides in human blood plasma (RP-HPLC peak areas, 37° C.); conditions: peak area relative to start
Protocol: The detection was carried out on the wave length 220 nm. The samples dosing on the column was carried out by the loop 20 μl.
as §1, §2

| Substance | Stability in a rat blood plasma, 0 h [1] | Stability in a rat blood plasma, 0.5 h [1] | Stability in a rat blood plasma, 1 h [1] | Stability in a rat blood plasma, 3 h [1] | Stability in human blood plasma, 0 h [2] | Stability in human blood plasma, 0.5 h [2] | Stability in human blood plasma, 1 h [2] | Stability in human blood plasma, 3 h [2] |
| --- | --- | --- | --- | --- | --- | --- | --- | --- |
| Creatinyl-Glycine Ethylamide Acetate [Example 6] | 100% | 97% | 97% | 95% | 100% | 97% | 95% | 95% |
| Creatinyl-Tyrosine Amide Succinate [Example 5] | 100% | 98% | 97% | 93% | 100% | 98% | 97% | 93% |
